Molecular target: T1, CCR5 (Homo sapiens, UniProt P51681)
T1 construct: expressed in transfected cells
Test: Calcium mobilization assay (RANTES-induced, Fluo-4 AM)
Assay type: cell-based
Conditions: CHO cells stably expressing CCR5 and Gα16; RANTES 30 nM; read-out: IC50 (antagonistic activity against CCR5)
Experimental: For the primary assay, the percent inhibitory rates of the compounds 1, 2 and 2a-l at 1 μM were measured. Except compounds 2a and 2c, the other twelve compounds were remarkably antagonist of CCR5 activity. Therefore, we determined their IC50 values (Table 1).
CHO cells stably expressing CCR5 and Gα16 were loaded with 2 μmol/L Fluo-4 AM in Hanks balanced salt solution (HBSS, containing KCl 5.4 mM, Na2HPO4 0.3 mM, KH2PO4 0.4 mM, NaHCO3 4.2 mM, CaCl2 1.3 mM, MgCl2 0.5 mM, Mg2SO4 0.6 mM, NaCl 137 mM, BSA 5 g/L, Glucose 5.6 mM, Sulfinpyrazone 250 μM, pH 7.4) at 37 °C for 45 minutes. After the cells being rinsed with the reaction buffer, 50 μL HBSS containing known antagonists (positive control), compounds of interest or DMSO (negative control, final concentration 1%) were added. After incubation at room temperature for 10 minutes, 25 μL RANTES (final concentration 30 nM) was dispensed into the well using a FlexStation II micro-plate reader (Molecular Devices, Sunnyvale, CA, USA) and intracellular calcium change was recorded with an excitation wavelength of 485 nm and emission wavelength of 525 nm. The half maximal inhibitory concentrations (IC50s) of compounds were determined with GraphPad Prism software by constructing their dose-response curves.

By UniProt entry, the sequences of proteins in these tests, tags left out.
UniProt P51681, whole entry: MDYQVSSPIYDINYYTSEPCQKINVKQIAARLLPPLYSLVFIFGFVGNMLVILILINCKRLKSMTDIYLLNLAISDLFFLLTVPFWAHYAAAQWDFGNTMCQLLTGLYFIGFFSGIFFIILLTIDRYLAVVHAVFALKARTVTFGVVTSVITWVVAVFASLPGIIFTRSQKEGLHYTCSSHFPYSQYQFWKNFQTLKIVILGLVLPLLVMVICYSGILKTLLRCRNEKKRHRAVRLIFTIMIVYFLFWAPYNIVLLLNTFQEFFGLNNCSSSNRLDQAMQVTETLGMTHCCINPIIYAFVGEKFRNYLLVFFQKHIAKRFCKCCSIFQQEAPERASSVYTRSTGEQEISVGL

maraviroc [reference compound] gave an IC50 of 2.61 nM.

Reference: publication PMC6245477, “Discovery of a Novel CCR5 Antagonist Lead Compound Through Fragment Assembly” (Molecules, 2008)
